# Most compounds without a hit are left out; they make up all but 2.1% or so of the library.
# UUG fidelity: alters start codon recognition fidelity in yeast. S. cerevisiae UUG-firefly luciferase reporter, luminescence/redox ratio. activity score, % at 18.7 µM. 0.13% of 350,000 active. AID 602363;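 active = replicate mean at a twofold rise or more, about +100% in these data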;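 also: firefly luciferase made from a UUG start codon reports start codon fidelity; reporter light over untreated wells divided by growth signal over untreated wells; some hits fall short of that in this replicate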
# ERp5 block: inhibitors of ERp5-driven insulin aggregation, primary screen, biochemical, turbidity, absorbance 650 nm, single point; Protein disulfide-isomerase A6 (Homo sapiens), Q15084; 90 min; inhibition, % at 9.99 µM; 0.05% of 350,000 active; AID 651711, 2012;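 active = mean replicate inhibition above about 25%, with every replicate also reaching it, limit read from the data, passing the limit was not always enough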
# GSIS activator: GLuc luminescence reporter in INS-1E cells, primary screen for activators of glucose-dependent secretion of insulin | INS-1E GLuc reporter insulin secretion, 2-3 h | activation, % at 16.6 µM | 0.61% of 370,000 active | AID 743287, 2014;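 active = lowest replicate activation of at least 40%, so every replicate reaches that level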;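 note: 0% = median of neutral control wells and 100% = median of IBMX positive control wells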
# PDI turbidity: inhibitors of human PDI, primary screen, biochemical, turbidity, single point, plate reader. Protein disulfide-isomerase (Homo sapiens), P07237. PDI insulin aggregation turbidity, A650, 90 min. inhibition, % at 10 µM. 0.052% of 350,000 active;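 active = mean inhibition across replicates of 30% or more, whatever share of single replicates reach that level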
# SMARCA2 act: SMARCA2 (BRM) function activators, primary screen, cell-based, luminescence, high throughput; MG213 cells, MMTV-luciferase reporter, dexamethasone, overnight; activation, % at 9.1 µM; 1% of 370,000 active; AID 652017, 2013; in the data active = activation above about 7.8%;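 note: 0% = vehicle wells and 100% = reference activator wells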
# NR1D1 modulator: modulators of Rev-erb alpha DNA binding, primary screen, biochemical, FITC-DNA, fluorescence polarization, uHTS; activity, % at 10 µM; Nuclear receptor subfamily 1 group D member 1 (Homo sapiens), P20393; AID 1259318, 2017; 0.79% of 370,000 active; Rev-erbα–FITC-DNA binding, 90 min;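 active = activity above about 14%, limit read from the data; passing the limit was not always enough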;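 note: 0% = DMSO wells with 35 nM protein and 100% = DMSO wells with 750 nM protein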
# * = called active by the depositor; nt = no result.
1. COc1ccc(C(=O)NC(=S)Nc2ccc(S(=O)(=O)Nc3cc(OC)ncn3)cc2)cc1
2. COc1cc(NS(=O)(=O)c2ccc(NC(=S)NC(=O)c3sc4ccccc4c3Cl)cc2)ncn1
3. C[C@@H]1CN([C@H](C)CO)C(=O)c2cccc(NS(=O)(=O)c3ccc(Cl)cc3)c2O[C@H]1CN(C)S(=O)(=O)c1ccc(F)cc1
4. O=C(O)CSc1nnc(Cc2ccccc2)n1Cc1ccccc1
5. O=C(O)CSc1nnc(Cc2ccccc2)n1-c1ccccc1
compound no. | 1 | 2 | 3 | 4 | 5
UUG fidelity | -10 | -14 | -7 | -20 | -15
ERp5 block | -1 | nt | nt | nt | nt
GSIS activator | -3 | 6 | 10 | 57* | nt
PDI turbidity | -1 | 1 | nt | 7 | 4
SMARCA2 act | -2 | 11* | nt | -4 | -2
NR1D1 modulator | -2 | 0 | nt | 0 | -6

6. Cc1c(O)cnc2nn(-c3ccccc3)c(=N)n12
7. Cc1nn(-c2ccccc2)c(C)c1N
8. CCOC(=O)c1cc2c(c(-c3cccc(-c4cccc(OC)c4)c3)n1)[C@@H](CCO)N(S(=O)C(C)(C)C)C2 (stereo partly drawn)
9. Nc1ccccc1SC(CC(=O)c1ccccc1)c1ccc([N+](=O)[O-])cc1 (stereo not drawn)
10. Nc1ccccc1SC(CC(=O)c1ccccc1)c1cccc([N+](=O)[O-])c1 (stereo not drawn)
compound no. | 6 | 7 | 8 | 9 | 10
UUG fidelity | nt | -13 | nt | -22 | -31
ERp5 block | -1 | 4 | 4 | 3 | 5
GSIS activator | 42* | -1 | -3 | 2 | -17
PDI turbidity | nt | 3 | nt | 0 | 56*
SMARCA2 act | -4 | 2 | nt | -1 | 1
NR1D1 modulator | -7 | -3 | nt | -1 | 4

11. CCOC(=O)C(=O)Nc1ccc(S(=O)(=O)Nc2ncccn2)cc1
12. CCCOC(=O)Nc1ccc(S(=O)(=O)Nc2ncccn2)cc1
13. COc1cccc(N/C=C/C(=O)c2ccc(Cl)cc2)c1
14. COc1ccc(N/C=C/C(=O)c2ccc(Cl)cc2)cc1
15. Fc1ccccc1-c1nnc2ccc3ccccc3n12
compound no. | 11 | 12 | 13 | 14 | 15
UUG fidelity | -16 | -14 | -27 | nt | 0
ERp5 block | nt | -6 | 0 | nt | 6
GSIS activator | 16 | 54* | 2 | 112* | 53*
PDI turbidity | -4 | -4 | -4 | 2 | 3
SMARCA2 act | 0 | 1 | 1 | 5 | -3
NR1D1 modulator | -4 | 1 | 1 | -2 | -1

16. O=C(NC(C(=O)N/N=C/c1ccccn1)c1n[nH]c(=O)c2ccccc12)c1ccccc1 (stereo not drawn)
17. COCCNC(=O)C[C@@H]1C[C@H]2c3cc(NC(=O)Nc4ccc(C(F)(F)F)cc4)ccc3O[C@H]2[C@H](CO)O1
18. C[C@H](CO)N1C[C@H](C)[C@@H](CN(C)Cc2ccc(C(=O)Nc3ccccc3N)cc2)Oc2ccc(NC(=O)Nc3ccc(C(F)(F)F)cc3)cc2C1=O
19. NC(=O)C1CCN(c2cc(Cl)nc(N)n2)CC1
20. COC(=O)C1CCN(c2cc(Cl)nc(N)n2)CC1
compound no. | 16 | 17 | 18 | 19 | 20
UUG fidelity | nt | nt | -6 | nt | 29
ERp5 block | -2 | -4 | 0 | -7 | 1
GSIS activator | 3 | -2 | 2 | 17 | 48*
PDI turbidity | -3 | nt | nt | 2 | 3
SMARCA2 act | 7.9* | nt | nt | -4 | 1
NR1D1 modulator | -4 | nt | nt | -8 | 4

21. COc1ccc(NC(=O)Nc2nnc(-c3cccs3)s2)cc1
22. COc1ccc(C(=O)Nc2nc(-c3cccs3)c(NC(C)=O)s2)cc1
23. COc1ccc(C(=O)Nc2nnc(-c3ccco3)s2)cc1
24. O=C(Nc1ccccc1)Nc1nnc(-c2cccs2)s1
25. COc1ccc(C(=O)Nc2nnc(-c3cccs3)s2)cc1
compound no. | 21 | 22 | 23 | 24 | 25
UUG fidelity | nt | -21 | -17 | -6 | -13
ERp5 block | 1 | nt | nt | nt | nt
GSIS activator | -12 | nt | 52* | 69* | 72*
PDI turbidity | 8 | 14 | -1 | 7 | 4
SMARCA2 act | 1 | 3 | 2 | 1 | 5
NR1D1 modulator | -7 | -2 | 3 | 5 | 2

26. CN(C)C(=O)C[C@H]1C[C@@H]2c3cc(NC(=O)NC4CCCC4)ccc3O[C@@H]2[C@H](CO)O1
27. O=C(NC(Cc1ccc(O)cc1)C(=O)N=Nc1c(O)[nH]c2ccccc12)c1ccccc1 (stereo not drawn)
28. COc1ccccc1-c1ccc2c(c1)O[C@@H](CN(C)C(=O)c1cccnc1)[C@@H](C)CN([C@@H](C)CO)S2(=O)=O
29. C[C@@H]1CN([C@H](C)CO)C(=O)c2cc(NC(=O)Nc3ccccc3)ccc2O[C@H]1CN(C)C
30. N=c1n(CCN2CCCCC2)c2ccccc2n1CC(=O)c1cccc([N+](=O)[O-])c1
compound no. | 26 | 27 | 28 | 29 | 30
UUG fidelity | -7 | nt | nt | nt | 6
ERp5 block | -7 | 3 | 1 | 5 | -3
GSIS activator | 12 | 2 | 4 | -4 | 2
PDI turbidity | nt | 45* | nt | nt | 15
SMARCA2 act | nt | 4 | nt | nt | 8.6*
NR1D1 modulator | nt | 3 | nt | nt | -5

31. COc1ccc(CCNC(=O)CSc2ccccn2)cc1OC
32. COc1ccc(CCNC(=O)C(=O)c2c(C)n(C)c3ccccc23)cc1OC
33. Cc1c(C(=O)C(=O)NCCC2=CCCCC2)c2ccccc2n1C
34. COc1ccc(CCNC(=O)CSc2cccc3cccnc23)cc1OC
35. COc1ccc(CCNC(=O)CSC(=O)c2ccccc2)cc1OC
compound no. | 31 | 32 | 33 | 34 | 35
UUG fidelity | nt | -32 | nt | -11 | nt
ERp5 block | 0 | 0 | 10 | -1 | 1
GSIS activator | 11 | 46* | nt | 41* | 46*
PDI turbidity | -1 | 4 | -6 | 2 | -6
SMARCA2 act | -1 | 1 | -3 | -5 | -1
NR1D1 modulator | -1 | -1 | 6 | -3 | 4

36. COc1ccc(CCNC(=O)CSc2ccccc2)cc1OC
37. Cc1ccc(S(=O)(=O)N2CC[C@@H]3[C@H]2c2cc(C#Cc4cccc(F)c4)ccc2N[C@@H]3CO)cc1
38. C[C@@H](NC(=O)C[C@@H]1CC[C@@H](NC(=O)CN2CCOCC2)[C@H](CO)O1)c1ccccc1
39. CCNc1nc(Oc2ccc(C#N)cc2)cc(C(F)(F)F)n1
40. Cc1ccc(C)c(NS(=O)(=O)c2c(C)nn(C)c2C)c1
compound no. | 36 | 37 | 38 | 39 | 40
UUG fidelity | nt | -4 | -8 | nt | -21
ERp5 block | -6 | 3 | 0 | -16 | nt
GSIS activator | 73* | -29 | 3 | 105* | nt
PDI turbidity | -4 | nt | nt | 8 | 37*
SMARCA2 act | 0 | nt | nt | -1 | 4
NR1D1 modulator | -6 | nt | nt | 2 | 3

41. Nc1ccc(C(=O)N/N=C/c2sc(N3CCOCC3)nc2-c2ccccc2)cc1
42. O=C(O)c1cccc(N/N=C/c2sc(N3CCOCC3)nc2-c2ccccc2)c1
43. CCn1c(SCc2cc(=O)[nH]c3ccccc23)nc2c1c(=O)n(C)c(=O)n2C
44. COc1ccc(CC(=O)OCn2nnc3ccccc3c2=O)cc1
45. COc1ccc(CC(=O)OCn2nnc3ccccc3c2=O)cc1OC
compound no. | 41 | 42 | 43 | 44 | 45
UUG fidelity | -18 | 15 | nt | 49 | nt
ERp5 block | -1 | nt | nt | nt | -3
GSIS activator | 11 | 42* | 49* | 6 | 44*
PDI turbidity | -3 | 2 | -1 | 3 | -17
SMARCA2 act | 1 | 5 | -1 | 0 | 4
NR1D1 modulator | -6 | -8 | 0 | -3 | 6

46. COc1ccc(CC(=O)OCN2C(=O)c3ccccc3C2=O)cc1
47. COc1ccc(CC(=O)OCN2C(=O)c3ccccc3C2=O)cc1OC
48. COc1ccc(CC(=O)O/N=C(\N)c2ccccc2)cc1OC
49. CCC(=O)N1[C@@H]2Cn3c(cccc3=O)[C@H]1[C@@H](C(=O)NC1CCC1)[C@@H]2CO
compound no. | 46 | 47 | 48 | 49
UUG fidelity | -20 | -7 | -11 | nt
ERp5 block | nt | -4 | 1 | 5
GSIS activator | -1 | 62* | 51* | 3
PDI turbidity | -8 | -3 | -1 | nt
SMARCA2 act | 0 | 6 | -3 | nt
NR1D1 modulator | 1 | 0 | 2 | nt

# With a hit mark in SMARCA2 act, of those listed so far:
2. COc1cc(NS(=O)(=O)c2ccc(NC(=S)NC(=O)c3sc4ccccc4c3Cl)cc2)ncn1
16. O=C(NC(C(=O)N/N=C/c1ccccn1)c1n[nH]c(=O)c2ccccc12)c1ccccc1 (stereo not drawn)
30. N=c1n(CCN2CCCCC2)c2ccccc2n1CC(=O)c1cccc([N+](=O)[O-])c1
compound no. | 2 | 16 | 30
UUG fidelity | -14 | nt | 6
ERp5 block | nt | -2 | -3
GSIS activator | 6 | 3 | 2
PDI turbidity | 1 | -3 | 15
SMARCA2 act | 11* | 7.9* | 8.6*
NR1D1 modulator | 0 | -4 | -5
